One test has as its system Moniezia spp. In words: Treatment of Moniezia expansa in lambs (natural infestation). It is filed as in vivo. As to conditions: 50 mg/kg. As to the method:
Twenty lambs spontaneously infested by nematodes and cestodes were removed from a flock near Limoges (Haute-Vienne), France. They were housed in sheepfold --concentrate food, 1 kg per day per lamb, water and hay, ad libitum, were provided.
The animals were assigned to treatment groups as indicated below:
Seven lambs (Group 1, black) were given a single 100 mg/kg of body weight dose of the test material dissolved in a mixture of water and gum syrup (0.5 ml/kg of body weight) orally administered with a syringe.
Seven lambs (Group 2, red) were given a single 50 mg/kg of body weight dose of the test material dissolved in a mixture of water and gum syrup (0.5 ml/kg of body weight) orally administered with a syringe.
Six lambs (Group 3, blue) were given 0.5 ml/kg of body weight of a mixture of water and gum syrup orally administered with a syringe.
48 hours after treatment, necroscopies were performed.
Scolices and gastro intestinal worm counts were carried out.

For another test, the system named is Taenia pisiformis. In words: Treatment of Taenia pisiformis in dogs (experimental infection, single oral dose). It counts as in vivo, dogs (beagles). Here is the method:
Fifteen beagles (8 male and 7 female), ranging in age from 8 to 30 months, were individually housed in stainless-steel cages and fed with commercial dog food. Water was provided ad libitum. After 2 weeks acclimatization, each dog was exposed to infection by administering orally 14-20 cysts containing Taenia pisiformis strobilocerci obtained 24 hours before from wild rabbits. Vitality of the cysts was verified by evagination in bile of the dog.
Seven dogs (Group 1) were given the drug 6 weeks after infection with Taenia pisiformis, and the other 8 dogs (Group 2) were given the drug 8 weeks after infection.
Food and water intake, faecel consistency, vomiting, general appearance and behavior were recorded hourly during the day of treatment and twice daily thereafter.
The tapeworms that were found were then removed, counted and examined for scolices.
The emission time of the faeces for each dog was recorded during the day, when possible.
Nineteen days after treatment for Group 1, and 4 days after treatment for Group 2, the dogs were killed and the small intestines were examined in order to reveal the presence of Taenia spp. This 19-day waiting period for Group 1 allowed time for any viable scolices to redevelop, thus making them more easily visible at necropsy. […]

In the case of `CC(=O)Oc1ccccc1C(=O)Nc1ncc([N+](=O)[O-])s1` [PH 5776, 2-(2'-acetoxy)-benzamido-5-nitro-thiazole], in the test with Moniezia spp., the “Total number of scolices recovered compared with control group” value was “less in that lot than in the control group”. The “Number Of Worms Recovered At Necropsy” value is 0 with Taenia pisiformis (Group 1, 75 mg/kg, 6 weeks after infection, sacrifice on day 19) and 0 with Taenia pisiformis (Group 2, 75 mg/kg, 8 weeks after infection, sacrifice on day 4).
